The values that follow come from US6911542B2, “Pyrazino[1′,2′:1,6]pyrido[3,4b]indole derivatives” (Lilly Icos LLC., priority 2000, dated 2005).

Assay [1] concerns the target human recombinant PDE5 (Homo sapiens, UniProt O76074). The assay is described as follows: cGMP-PDE one-step inhibition assay, human recombinant PDE5. Type of assay: biochemical. The settings on record: read-out: PDE5 IC50, 0.15 μM 8-[H3]-cGMP, 30 min incubation.
The target of assay [2] is PDE5 obtained from bovine aorta (Bos taurus, UniProt Q28156). Kind of assay: cGMP-PDE inhibition assay using PDE5 obtained from bovine aorta. The settings on record: read-out: PDE5 IC50 (Bov. aorta).

The IC50 is the concentration at which inhibition is half-maximal. As to `O=C1[C@H]2Cc3c([nH]c4ccccc34)[C@@H](c3ccc4c(c3)OCO4)N2C(=O)CN1CCN1CCOCC1`, the IC50 in assay [1] was determined as 10 nM.
Same read-out and setting: as for `COc1ccc(C2c3[nH]c4ccccc4c3CC3C(=O)N(CCN4CCOCC4)CC(=O)N32)cc1` (stereo not drawn), the figure is 10 nM.
For the compound `O=C1[C@H]2Cc3c([nH]c4ccccc34)[C@@H](c3ccc4c(c3)OCO4)N2C(=O)CN1CCN1CCOCC1` (relative stereo), in assay [2], the 50% inhibitory concentration (IC50) is 60 nM.
In the case of `O=C1[C@H]2Cc3c([nH]c4ccccc34)[C@@H](c3ccc4c(c3)OCO4)N2C(=O)CN1CCn1ccnc1` [55], in assay [1], the IC50 worked out at 50 nM.
On the same count and under the same terms, then `CN1CCCC1CCN1CC(=O)N2[C@H](c3ccc4c(c3)OCO4)c3[nH]c4ccccc4c3C[C@@H]2C1=O` (stereo partly drawn), with 130 nM.
In the case of `O=C1[C@H]2Cc3c([nH]c4ccccc34)[C@@H](c3ccc4c(c3)OCO4)N2C(=O)CN1c1ccccc1`, the 50% inhibitory concentration (IC50) in assay [1] was found to be 6.2 nM.
Still for that read-out and setting: then `O=C1[C@H]2Cc3c([nH]c4ccccc34)[C@@H](c3ccc4c(c3)OCO4)N2C(=O)CN1CC1CCCO1` (stereo partly drawn), with 30 nM.
The same measure, in the same setting: then `O=C1[C@H]2Cc3c([nH]c4ccccc34)[C@@H](c3ccc4c(c3)OCO4)N2C(=O)CN1Cc1nc2ccccc2[nH]1` [61], with 10 nM.
Take `COc1ccc([C@@H]2c3[nH]c4ccccc4c3C[C@@H]3C(=O)N(CCN4C[C@@H](C)O[C@@H](C)C4)CC(=O)N23)cc1`: the IC50 in assay [1] was 10 nM.
Regarding `O=C1[C@H]2Cc3c([nH]c4ccccc34)[C@@H](c3ccc4c(c3)OCO4)N2C(=O)CN1CCN1CCCCC1` (relative stereo), in assay [2], the half-inhibitory concentration (IC50) came out at 250 nM.
Consider `CC1C(=O)N2[C@H](c3ccc4c(c3)OCO4)c3[nH]c4ccccc4c3C[C@@H]2C(=O)N1Cc1ccc(N(C)C)cc1` (stereo partly drawn), for which the IC50 in assay [1] turned out to be 70 nM.
The same measure, in the same setting: as for `O=C1[C@H]2Cc3c([nH]c4ccccc34)[C@@H](c3ccc4c(c3)OCO4)N2C(=O)CN1CCn1ccnc1` [53], the figure is 550 nM.
Still for that read-out and setting: then `CN(C)Cc1ccc(CN2CC(=O)N3[C@H](c4ccc5c(c4)OCO5)c4[nH]c5ccccc5c4C[C@@H]3C2=O)cc1` [65], with 630 nM; and `O=C1[C@H]2Cc3c([nH]c4ccccc34)[C@@H](c3ccc4c(c3)OCO4)N2C(=O)CN1Cc1cccc([N+](=O)[O-])c1`, with 50 nM.
On the same count and under the same terms, as for `O=C1[C@H]2Cc3c([nH]c4ccccc34)[C@@H](c3ccc4c(c3)OCO4)N2C(=O)CN1Cc1nc2ccccc2[nH]1` [45], the figure is 80 nM.
As to `Nc1cccc(CN2CC(=O)N3[C@H](c4ccc5c(c4)OCO5)c4[nH]c5ccccc5c4C[C@@H]3C2=O)c1`, in assay [1], the IC50 turned out to be 8.8 nM.
In the case of `CCN(CC)CCN1CC(=O)N2[C@H](c3ccc4c(c3)OCO4)c3[nH]c4ccccc4c3C[C@@H]2C1=O` (relative stereo), in assay [2], the IC50 came to 80 nM.
For `O=C1[C@H]2Cc3c([nH]c4ccccc34)[C@@H](c3ccc4c(c3)OCO4)N2C(=O)CN1Cc1ccc(OCc2ccccc2)cc1`, the 50% inhibitory concentration (IC50) in assay [1] amounted to 70 nM.
Still for that read-out and setting: then `O=C1[C@H]2Cc3c([nH]c4ccccc34)[C@@H](c3ccc4c(c3)OCO4)N2C(=O)CN1CCN1CC2CCC(CC2)C1`, with 400 nM.
As to `Nc1ccc(CN2CC(=O)N3[C@H](c4ccc5c(c4)OCO5)c4[nH]c5ccccc5c4C[C@@H]3C2=O)cc1`, the IC50 in assay [1] is 4.2 nM.
Still for that read-out and setting: then `Cc1cc(C)n(CCCN2CC(=O)N3[C@H](c4ccc5c(c4)OCO5)c4[nH]c5ccccc5c4C[C@@H]3C2=O)n1`, with 8.4 nM.
Regarding `CC(C)N(CCN1CC(=O)N2[C@H](c3ccc4c(c3)OCO4)c3[nH]c4ccccc4c3C[C@@H]2C1=O)C(C)C` (relative stereo), the IC50 in assay [2] worked out at 1610 nM; in assay [1], 470 nM.
For `CN(C)c1ccc(CN2CC(=O)N3[C@H](c4ccc5c(c4)OCO5)c4[nH]c5ccccc5c4C[C@@H]3C2=O)cc1`, the IC50 in assay [1] came out at 20 nM.
